# Laboratory results from US20230346796A1 (priority 2010, published 2023).
# How the values were obtained:
# patients = experiment: Study CNS 7056-003 (single doses of CNS 7056 without fentanyl); details: single doses 0.1 to 0.2 mg/kg without concomitant fentanyl
# [1] = system: healthy volunteers and patients undergoing a colonoscopy; experiment: MOAA/S pharmacodynamic analysis of CNS 7056 (sedation, simpler model); format: in vivo, human
# [2] = system: patients undergoing a colonoscopy; experiment: Study CNS 7056-002 (Phase Ib, CNS 7056 with fentanyl, colonoscopy)
smiles,measurement,setting,value
"COC(=O)CC[C@@H]1N=C(c2ccccn2)c2cc(Br)ccc2-n2c(C)cnc21 [CNS 7056, 3-[(4S)-8-bromo-1-methyl-6-(2-pyridinyl)-4H-imidazo[1,2-a][1,4]benzodiazepin-4-yl] propionic methyl ester]",patients with sufficient sedation,patients,32-64%
same,"EC50, theta (RSE%)","[1]; MOAASALL01S, combined data sets",0.349 (4.35) µg/ml
same,"EC50, theta (RSE%)","[1]; MOAASALL09S, fentanyl dose as covariate",0.38 (7.68) µg/ml
same,"EC50, theta (RSE%)","[1]; MOAASALL18S, scope effect",0.342 (4.38) µg/ml
same,"EC50, theta (RSE%)","[1]; MOAASALL21S, additional stimuli 1 min",0.336 (4.34) µg/ml
same,"EC50, theta (RSE%)","[1]; MOAASALL22S, additional stimuli 1 min, size of spike taken into account",0.336 (4.31) µg/ml
same,"EC50, theta (RSE%)","[1]; MOAASALL29S, scope effect, stimuli 1 / 2 min",0.323 (4.45) µg/ml
same,"EC50, theta (RSE%)","[1]; MOAASALL31S, scope effect, stimuli 1 / 2 min",0.323 (4.42) µg/ml
same,"EC50, theta (RSE%)","[1]; MOAASALL32S, scope effect, stimuli 1 / 2 min",0.323 (4.48) µg/ml
same,"EC50, theta (RSE%)","[1]; MOAASALL33S, scope effect with IIV",0.342 (4.41) µg/ml
same,EC50 in the absence of fentanyl,[1]; model MOAASALL05S,0.364 µg/mL
same,EC50 in the presence of fentanyl,[1]; model MOAASALL05S,0.338 µg/mL
same,related AESIs (adverse events of special interest),"[2]; Phase Ib study, 45 subjects",37
same,Success rate n/N (%),"[2]; combined success rate of 2 highest doses, Phase Ib (Study CNS7056-002)",24/29 (82.8%)
